The values below come from US7915285B2, “Method for treating drug and behavioral addictions” (priority 2005, dated 2011).

SMILES strings stand for the structures.

For one experiment, the system named is interleukin-1 mRNA. Nature of the experiment: mRNA analysis of brain nuclei by real-time PCR (Example 4). Format: in vivo, rat. The note with it: dorsal periaqueductal grey region, FIG. 8. The method, then: (§1) Following scoring of withdrawal behaviors animals received an intraperitoneal injection of 0.8 ml of 50 mg/ml sodium pentobarbital, and once anesthetized, animals were transcardially perfused. Half of each treatment group were perfused with saline and half with 4% paraformaldehyde. Spinal cord and brains were collected (saline perfusion for protein and mRNA quantification and paraformaldehyde perfusion for immunohistochemistry). Samples collected from saline perfused animals were flash frozen in liquid nitrogen and stored at −80° C. Paraformaldehyde perfused samples were stored in 4% paraformaldehyde for 48 hours and then transferred to 30% sucrose (0.1% azide) until tissue sectioning.
Amplification of cDNA was performed using the QUANTITECT SYBR GREEN PCR kit (Qiagen, Valencia, Calif.) in ICYCLER IQ 96-well PCR plates (Bio-Rad, Hercules, Calif.) on a MYIQ single color real-time PCR detection system (Bio-Rad). The reaction mixture (26 μl) was composed of 1× QUANTITECT SYBR GREEN PCR master mix (containing the fluorescent dye SYBR green I, 2.5 mM MgCl2, dNTP mix, and HOTSTART Taq DNA polymerase), 10 nM fluorescein, 500 nM each of forward and reverse primers, 25 ng cDNA and nuclease-free H2O. Reactions were done in triplicate (n=3-6 animals/group). […] Linearity and efficiency of PCR amplification were assessed using standard curves generated by increasing amounts of cDNA. […]
In general terms: Quantitative PCR measures a nucleic acid by following its amplification.

The subject of experiment [1] is microglial activation marker CD11b. Nature of the experiment: Brain immunohistochemistry and densitometry of microglial activation marker (Example 4). Format: in vivo, rat. Conditions: for CD11b densitometry: FIG. 7. The method, then: as §1
Immunoreactivity for OX-42 (antibody that recognizes complement type 3 receptors, e.g., CD11b) and/or glial fibrillary acidic protein (GFAP), microglial and astrocyte activation markers, respectively, were assessed. Sections (20 μm) were treated with 0.3% H2O2 in Tris-buffered saline (TBS) for 20 minutes at room temperature to suppress endogenous peroxidase activity. Sections were then incubated overnight at 4° C. in monoclonal mouse anti-rat OX-42 (1:100; Pharmingen, San Diego, Calif.) or monoclonal mouse anti-rat GFAP antibody (1:200; Chemicon, Temecula, Calif.) in TBS with 2% normal goat serum and 0.5% Triton-X-100. Subsequently, sections were incubated with the appropriate secondary biotinylated antibodies (1:400; Jackson ImmunoResearch, West Grove, Pa.) for 2 hours at room temperature, incubated in avidin -biotin complex solution (ABC; 1:200; Vector Laboratories, Burlingame, Calif.) for 2 hours at room temperature, followed by reaction with 0.5 mg/ml 3,3′-diaminobenzidine tetrahydrochloride (DAB; Sigma). Finally, sections were dried, dehydrated, and coverslipped with Permount. Staining was evaluated by light microscopy. Densitometry of immunohistochemical staining was subsequently evaluated using computer software (NIH image).

Turning to `CC(C)C(=O)c1c(C(C)C)nn2ccccc12` [ibudilast, 2-methyl-1-(2-(1-methylethyl)pyrazolo(1,5-a)pyridin-3-yl)1-propanone], in the experiment on interleukin-1 mRNA, the “morphine induced increase in interleukin-1 mRNA” value is reported as “completely blocked the morphine induced increase in interleukin-1 mRNA”. The “morphine-induced increase in CD11b staining” value in experiment [1] (immunohistochemistry, FIG. 6) is given as “dramatically reduced the increase in the CD11b marker”. Moreover, the CD11b densitometry entry in experiment [1] (periaqueductal grey) and in experiment [1] (trigeminal nucleus) was “significant reduction in the microglial activation marker CD11b” each time.
